These are literature values, as cited in patent US20230189804A1, “PROHEXADIONE PLANT GROWTH REGULATOR COMPOSITION” (Nufarm Americas, Inc., priority 2021, published 2023).

The conditions of this data set: distilled water at 20° C.

As to “calcium 3,5-dioxo-4-(1-oxopropyl)cyclohexanecarboxylate [Prohexadione calcium]”, the solubility entry is on record as “about 786 mg/I”.
